Values quoted from earlier work in patent publication US20090123376A1, “THERAPEUTIC AGENTS WITH DECREASED TOXICITY” (priority 2004, published 2009).

Settings: patients; cited from earlier work

Question: For ibritumomab tiuxetan [ZEVALIN®], which cytopenias on administration is on record?
Answer: severe and prolonged cytopenias in most patients
